Reference: US20220152228A1, “COMPOSITIONS AND METHODS FOR RADIOTHERAPY USING CHELATED RADIOTHERAPEUTIC AGENTS AND NON-TARGET TISSUE BLOCKADE” (Washington University, priority 2019, published 2022)

Assay: 223Ra organ distribution in mice pre-treated with ion-channel modulator
Assay type: in vivo, C57/Bl6 mice
Description: Healthy male C57/Bl6 mice were randomized received a combination treatment with intraperitoneal injection of Amiloride (inhibitor, red) or NS-1619 (activator, green) or saline (control, grey) followed by a clinical dose of ^223RaCl2 1 h post-drug administration. Radioactive organ distribution was then measured at 15 min, 1 h and 4 h post ^223Ra treatment. […] Comparing bone uptake, as early as 15 min, osseous absorption is was half for the NS-1619-treated group as compared to the amiloride or the control group.
Male C57Bl/6 aged 10 weeks (n=6 per treated group) were administered intraperitoneally Amiloride (12.5 mg/kg-150 uL 2% v/v DMSO) or NS-1619 (1 mg/kg-150 uL 2% v/v DMSO) or saline 1 h prior ^223RaCl2 i.v. administration (3.7 KBq/100 uL buffer). Animals were kept awake between each injection. 15 min; 1 h and 4 h post ^223Ra administration: blood; spleen; kidney; stomach; duodenum; jejunum; ileum; cecum; colon; muscle; fat and bone tibia were harvested, weighed and gamma counted. Gamma counting was conducting utilizing a Perkin Elmer Wizard2 counter with readings of energies set 150-350 KeV, with 10 min reading for each sample. Standard corresponding to 10% of injected activity were measured as well; allowing for the calculation of % Injected activity (% IA) normalized to tissue weight (% IA/g).

## N=C(N)NC(=O)c1nc(Cl)c(N)nc1N [Amiloride]
4 h p.i.
  kidney uptake (% IA) of 223Ra: delayed excretion

## O=c1[nH]c2cc(C(F)(F)F)ccc2n1-c1cc(C(F)(F)F)ccc1O [NS-1619]
15 min post 223RaCl2, modulator i.p. 1 h before
  osseous absorption of 223Ra relative to amiloride or control group: half
